# Measured values as given in paper PMC7723054.
# This is one part of the list.
# T1: LIN28A (human?, UniProt Q9H9Z2 1-209)
# T1 sequence: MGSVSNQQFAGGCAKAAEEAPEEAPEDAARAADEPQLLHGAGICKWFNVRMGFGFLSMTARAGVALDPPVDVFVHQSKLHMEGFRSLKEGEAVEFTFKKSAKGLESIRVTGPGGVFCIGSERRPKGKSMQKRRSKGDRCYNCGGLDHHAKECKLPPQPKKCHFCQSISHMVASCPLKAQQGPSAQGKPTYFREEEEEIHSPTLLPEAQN
# T2: CIRBP (Homo sapiens, UniProt Q14011 1-172)
# T2 sequence: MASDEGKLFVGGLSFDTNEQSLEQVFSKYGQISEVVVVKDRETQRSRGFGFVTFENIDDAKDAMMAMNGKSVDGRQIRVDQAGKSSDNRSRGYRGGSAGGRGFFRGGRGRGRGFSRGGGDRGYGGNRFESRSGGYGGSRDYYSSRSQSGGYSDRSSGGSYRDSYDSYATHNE
# T3: DHX36 (Homo sapiens, UniProt Q9H2U1 1-1008)
# T3 sequence: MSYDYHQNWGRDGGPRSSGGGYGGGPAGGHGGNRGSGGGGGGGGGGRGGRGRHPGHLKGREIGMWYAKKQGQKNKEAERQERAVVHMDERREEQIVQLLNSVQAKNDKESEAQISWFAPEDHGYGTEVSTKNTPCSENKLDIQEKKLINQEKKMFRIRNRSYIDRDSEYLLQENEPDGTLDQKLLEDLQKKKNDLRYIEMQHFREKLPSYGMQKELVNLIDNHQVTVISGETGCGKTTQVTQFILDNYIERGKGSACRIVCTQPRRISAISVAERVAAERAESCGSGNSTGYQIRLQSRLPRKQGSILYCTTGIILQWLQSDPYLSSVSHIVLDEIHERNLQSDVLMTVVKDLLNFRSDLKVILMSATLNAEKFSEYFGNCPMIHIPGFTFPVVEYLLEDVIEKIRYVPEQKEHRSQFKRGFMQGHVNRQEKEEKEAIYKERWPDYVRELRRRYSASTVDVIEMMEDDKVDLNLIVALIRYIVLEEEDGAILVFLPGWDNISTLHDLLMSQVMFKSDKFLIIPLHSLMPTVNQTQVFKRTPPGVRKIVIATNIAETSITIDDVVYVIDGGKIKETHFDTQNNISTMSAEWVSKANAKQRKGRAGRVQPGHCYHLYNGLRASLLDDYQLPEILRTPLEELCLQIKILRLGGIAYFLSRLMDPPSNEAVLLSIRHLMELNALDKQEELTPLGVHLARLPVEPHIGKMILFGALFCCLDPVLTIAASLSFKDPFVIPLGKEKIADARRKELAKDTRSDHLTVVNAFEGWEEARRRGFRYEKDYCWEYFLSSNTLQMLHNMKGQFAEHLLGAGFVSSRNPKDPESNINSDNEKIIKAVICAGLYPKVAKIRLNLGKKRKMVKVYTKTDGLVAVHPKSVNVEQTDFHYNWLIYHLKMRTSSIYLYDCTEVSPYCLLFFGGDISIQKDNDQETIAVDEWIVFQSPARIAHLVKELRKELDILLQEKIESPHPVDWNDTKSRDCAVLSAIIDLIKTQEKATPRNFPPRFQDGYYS
# B1: hsa-mir-3180-5 (structured_RNA)
# RNA: GGGACUCAUCCAGCAAUGUCACGUUAGGGGUGUACGAAGUUUCAGCGGAGGCCCCGCCCUGCUGCCGACCCUGUGGAGCGGAGGGUGAAGCCUCCGCUGAAGCUUCGUGCAC
# B2: hsa-mir-4265 (structured_RNA)
# RNA: GGGAAAUCGGCUAAGGUGAUAUCCAACCGGUGUACGAAGUUUCAGCACACCUGUAAAGAAUUGGUCAGCCUGGGGACUGGUGAUCUCUGCAGCUGUGCUGAAGCUUCGUGCAC
# B3: NEAT1_ParasoR_ID26 (structured_RNA)
# RNA: GGGAACACAGGGCUGCCAGAACAUAUCCGGUGUACGAAGUUUCAGCUGCAGCAUAUAACAGUACUGCGGCUGAAGCUUCGUGCAC
# B4: hsa-mir-4655 (structured_RNA)
# RNA: GGGACAUGGAAGGUCGAAUAAUACCGGCGGUGUACGAAGUUUCAGCGGGUCGUGGGAAAGUGUUGACCCGCUGAAGCUUCGUGCAC
# B5: hsa-mir-609 (structured_RNA)
# RNA: GGGAUCCGAGUAGUGCAGCUACCUGCAGGGUGUACGAAGUUUCAGCCUCUGGUCUAUAAUGGGUUAAAUAGUAGAGGCUGAAGCUUCGUGCAC
# B6: hsa-mir-4325 (structured_RNA)
# RNA: GGGAAUACUGUGAACUGGAUUGAGCUUGGGUGUACGAAGUUUCAGCGUGAGAGAUGCUUCUAGAUCCAGGAGGCAGACCUCAAGCUGAAGCUUCGUGCAC
# B7: hsa-mir-4537 (structured_RNA)
# RNA: GGGAAAGUAUACUCCGUGCGUUCCCGUUGGUGUACGAAGUUUCAGCGCUGGGCUGAGCUAACCAGGGCUGGGCUGAGCGCUGAAGCUUCGUGCAC
# B8: hsa-mir-301b (structured_RNA)
# RNA: GGGAGAACUACUCGAAUCGGAUGUCAACGGUGUACGAAGUUUCAGCACUACUGUGCUCUGAGAAGCAGUGCUGAAGCUUCGUGCAC
# B9: hsa-mir-378f (structured_RNA)
# RNA: GGGAGGUUUGCAGUAAACUAACGAGGACGGUGUACGAAGUUUCAGCCAGGCUGCUAAACAACAGAACGAGCACUGGCUGAAGCUUCGUGCAC
# B10: hsa-mir-6762 (structured_RNA)
# RNA: GGGAACAAAAGACUGCCGAUGGGACCACGGUGUACGAAGUUUCAGCGCCUGUGUAGACGGGGACCUGCCCUGCAUGGGCACCCCCUCACUGGCGCUGAAGCUUCGUGCAC
# B11: hsa-mir-6809 (structured_RNA)
# RNA: GGGAACCACGUUGACCCGGUAUGAAAUCGGUGUACGAAGUUUCAGCGGAUCAUGUUUGCCCCCGUGGACAGCUCUCUGGUGUGCUCCUCCUGCCAUCCUGCCCACCCCUGCAUAAUGCUGCUUCGCUGAAGCUUCGUGCAC
# B12: hsa-mir-4506 (structured_RNA)
# RNA: GGGAGAUGUAGCCGCGCUCACUGUUAGCGGUGUACGAAGUUUCAGCGGUUCAAGUUUGGCUCCAUCUUUAUGAAAGCUGAAGCUUCGUGCAC
# B13: hsa-mir-3157 (structured_RNA)
# RNA: GGGAUUAAUGAACGGGUCGUCCGCAACGGGUGUACGAAGUUUCAGCGCAGUCUGCUUUGUGCCAACACUGGGGUGAUGACUGCGCUGAAGCUUCGUGCAC
# B14: hsa-mir-6775 (structured_RNA)
# RNA: GGGACGGGAACUUAGCUUUUCGACGCCCGGUGUACGAAGUUUCAGCGGCUGGACAGGAGAGGGCUCACCCAGGGCUGAAGCUUCGUGCAC
# B15: hsa-mir-425 (structured_RNA)
# RNA: GGGACGGGAGCACUGGCAGAUACUUAACGGUGUACGAAGUUUCAGCCGUUGAGUGGGCACCCGAGAAGCCAUCGGCUGAAGCUUCGUGCAC
# B16: hsa-mir-3944 (structured_RNA)
# RNA: GGGAAGUUUUGUCGGAACCCACUGCGCUGGUGUACGAAGUUUCAGCCGAGAAGCGCCUGCGUCUCCCAUUUUCGGCUGAAGCUUCGUGCAC
# B17: hsa-mir-3679 (structured_RNA)
# RNA: GGGACAGCGUCGCAUGUACCAGAAUCAAGGUGUACGAAGUUUCAGCGAAGGGGAGUUUCCCUCUAUUCCCUUCGCUGAAGCUUCGUGCAC
# B18: hsa-mir-4281 (structured_RNA)
# RNA: GGGAAGGCCAGUACUGUGCUAGACAGCAGGUGUACGAAGUUUCAGCAGCUGGGGCCGGGUGCUGAAGCUUCGUGCAC
# B19: hsa-mir-429 (structured_RNA)
# RNA: GGGAAAGGAGGCGCGUCUAAUAAAGAAAGGUGUACGAAGUUUCAGCGUUAGACCUGGCCCUCUGUCUAAUGCUGAAGCUUCGUGCAC
# B20: hsa-mir-1825 (structured_RNA)
# RNA: GGGAAUUCAUAAAGAUAGGUGCAGUCGGGGUGUACGAAGUUUCAGCUGGGCUCCCCUAGACUAGGACUCCAGCUGAAGCUUCGUGCAC
# B21: hsa-mir-5009 (structured_RNA)
# RNA: GGGAAUCACAUCACGGUGAAGAGUUAUUGGUGUACGAAGUUUCAGCGGGAUAUUUGCAUUAUACUUAUCCGCUGAAGCUUCGUGCAC
# B22: hsa-mir-4761 (structured_RNA)
# RNA: GGGAAGUAGUACCGCGGAUAUAAUAGUCGGUGUACGAAGUUUCAGCCUGACCCGUUGUCAGACCUGGAAAAAGGGCCGGCUGUGGGCAGGGAGGGCUGAAGCUUCGUGCAC
# Target: U1A (Homo sapiens, UniProt P09012)
# Experiment: FOREST: bead pull-down of RNA structure library v1, barcode microarray; U1A/LIN28A: 20 mM HEPES pH 7.5, 80 mM KCl, 20 mM NaCl, 10% glycerol, 2 mM DTT, 0.1 ug/uL BSA, 4 C; BG4/CIRBP/DHX36: 10 mM Tris-HCl pH 7.5, 100 mM KCl (or LiCl),; high values mean tight binding
row,Binder,binding signal [z-score]
1,B1,0.527
2,B2,2.13
3,B3,0.525
4,B4,0.525
5,B5,0.524
6,B6,0.524
7,B7,0.524
8,B8,0.52
9,B9,0.52
10,B10,0.519
11,B11,0.516
12,B12,0.511
13,B13,2.12
14,B14,0.51
15,B15,0.509
16,B16,0.505
17,B17,0.505
18,B18,0.505
19,B19,0.501
20,B20,0.497
21,B21,0.49
22,B22,0.49

# Target: T1, LIN28A
# Experiment: as above
row,Binder,binding signal [z-score]
1,B1,-0.497
2,B2,0.87
3,B3,1.21
4,B4,2.45
5,B5,1.84
6,B6,0.117
7,B7,-2
8,B8,-0.0969
9,B9,0.747
10,B10,-0.819
11,B11,-0.0398
12,B12,1.85
13,B13,0.284
14,B14,0.606
15,B15,0.298
16,B16,-0.411
17,B17,-0.325
18,B18,-1.53
19,B19,0.511
20,B20,-0.132
21,B21,2.28
22,B22,1.7

# Target: T2, CIRBP
# Experiment: as above
row,Binder,binding signal [z-score]
1,B1,-1.42
2,B2,0.373
3,B3,2.02
4,B4,-0.695
5,B5,-1.12
6,B6,0.038
7,B7,-0.941
8,B8,0.264
9,B9,1.12
10,B10,-0.208
11,B11,-0.91
12,B12,0.217
13,B13,-0.352
14,B14,-0.79
15,B15,-0.207
16,B16,0.324
17,B17,-0.493
18,B18,-0.878
19,B19,1.18
20,B20,-0.322
21,B21,2.32
22,B22,2.17

# Target: T3, DHX36
# Experiment: as above
row,Binder,binding signal [z-score]
1,B1,0.0464
2,B2,-0.508
3,B3,-0.189
4,B4,0.354
5,B5,0.274
6,B6,0.0492
7,B7,-0.933
8,B8,0.375
9,B9,1.07
10,B10,-0.384
11,B11,0.431
12,B12,-0.448
13,B13,0.341
14,B14,1.98
15,B15,-0.152
16,B16,0.251
17,B17,-0.0906
18,B18,-0.12
19,B19,2.69
20,B20,0.0117
21,B21,0.212
22,B22,1.43
